Measurements taken from patent US12570711B2, “Platforms for co-stimulation, novel car designs and other enhancements for adoptive cellular therapy” (Angeles Therapeutics, Inc., priority 2017, dated 2026).

Tested on: CD3+ve T cells
Test: Proliferation of T cells after lentiviral expression of NEMO mutants (cell numbers, long term culture)
Assay type: cell-based, human
Conditions: expression in T cells
Description: Thus, the disclosure provides composition and methods to enhance the survival, proliferation, cytokine secretion, delay exhaustion and senescence and improve the in vivo expansion, persistence and anti-tumor activity of an immune cell, e.g., T cell, e.g., CAR-T or TCR-T or SIR-T cell, and/or an immune cell expressing a non-naturally occurring immune receptor, via selective or preferential (i.e., without AKT activation) activation of the NF-κB pathway in the immune cell.
Buffy coat cells were obtained from healthy de-identified adult donors from the Blood Bank at Children Hospital of Los Angeles and used to isolate peripheral blood mononuclear cells (PBMC) by Ficoll-Hypaque gradient centrifugation. PBMC were either used as such or used to isolate T cells using CD3 magnetic microbeads (Miltenyi Biotech) and following the manufacturer's instructions. PBMC or isolated T cells were re-suspended in XVIVO medium (Lonza) supplanted with 10 ng/ml CD3 antibody, 10 ng/ml CD28 antibody and 100 IU recombinant human-IL2. Cells were cultured at 37° C., in a 5% CO2 humidified incubator. Cells were activated in the above medium for 1 day prior to infection with lentiviral vectors. In general, primary cells (e.g. T cells) were infected in the morning using spin-infection (1800 rpm for 90 minutes at 37° C. with 300 μl of concentrated virus that had been re-suspended in XVIVO medium in the presence of 8 μg/ml of Polybrene® (Sigma, Catalog no. H9268). The media was changed in the evening and the infection was repeated for two more days for a total of 3 infections. After the 3rd infection, the cells were pelleted and resuspended in fresh XVIVO media containing 10 ng/ml CD3 antibody, 10 ng/ml CD28 antibody and 100 IU recombinant human-IL2 and supplemented with respective antibiotics (if indicated) and place in the cell culture flask for selection, unless indicated otherwise. Cells were cultured in the above medium for 10-15 days in case no drug selection was used and for 20-30 days in case drug-selection was used. In cases, where cells were infected with a lentivirus expressing EGFP, they were expanded without drug-selection or flow-sorted to enrich for EGFP-expressing cells. For infection of cancer cell lines, approximately 500,000 cells were infected with 2 ml of the un-concentrated viral supernatant in a total volume of 3 ml with Polybrene® (Sigma, Catalog no. H9268). Then next morning, the cells were pelleted and resuspended in the media with respective antibiotics and place in the cell culture flask for selection.
The mouse NEMO-K270A (SEQ ID NO: 992) is known to activate NF-κB constitutively. […] Cells were cultured at 37° C., in a 5% CO2 humidified incubator, and after 1 day infected with a lentiviral vector (pLENTI-EGFP-Blasticidin) expressing EGFP and lentiviral vectors expressing mouse NEMO-K270A mutants (pLENTI-mNEMO-K270A-FLAG-Blasticidin and pLENTI-mNEMO-K270A-HA-Blasticidin), or mouse NEMO-wt (pLENTI-mNEMO-FLAG-Blasticidin). The sequences of mNEMO-K270A and mNEMO-wt are provided in SEQ ID NOs: 992 and 991, respectively. Approximately 1 day post-infection, cells were selected with blasticidin and cell numbers calculated periodically.

Molecule: hNEMO-K277A: human NEMO mutant K277A, constitutively active selective NF-κB activator used as accessory module
- ability of T cells to proliferate long term in culture: extends their ability to proliferate long term in culture without undergoing senescence

B1: hNEMO-K277A-DeltaV249-K255: mutant lacking aminoacid residues V249-K255 of human NEMO and carrying the K277A mutation (protein)
chain: MNRHLWKSQLCEMVQPSGGPAADQDVLGEESPLGKPAMLHLPSEQGAPETLQRCLEENQELRDAIRQSNQILRERCEELLHFQASQREEKEFLMCKFQEARKLVERLGLEKLDLKRQKEQALREVEHLKRCQQQMAEDKASVKAQVTSLLGELQESQSRLEAATKECQALEGRARAASEQARQLESEREALQQQHSVQVDQLRMQGQSVEAALRMERQAASEEKRKLAQLQVAYHQLFQEYDNHIKSSRGMQLEDLKQQLQQAEEALVAAQEVIDKLKEEAEQHKIVMETVPVLKAQADIYKADFQAERQAREKLAEKKELLQEQLEQLQREYSKLKASCQESARIEDMRKRHVEVSQAPLPPAPAYLSSPLALPSQRRSPPEEPPDFCCPKCQYQAPDMDTLQIHVMECIE
- ability of T cells to proliferate long term in culture: extends their ability to proliferate long term in culture without undergoing senescence
